For assay [1], the target named is T1, human A2b receptor subtype (Homo sapiens, UniProt P29275).
T1 sequence (P29275 1-332): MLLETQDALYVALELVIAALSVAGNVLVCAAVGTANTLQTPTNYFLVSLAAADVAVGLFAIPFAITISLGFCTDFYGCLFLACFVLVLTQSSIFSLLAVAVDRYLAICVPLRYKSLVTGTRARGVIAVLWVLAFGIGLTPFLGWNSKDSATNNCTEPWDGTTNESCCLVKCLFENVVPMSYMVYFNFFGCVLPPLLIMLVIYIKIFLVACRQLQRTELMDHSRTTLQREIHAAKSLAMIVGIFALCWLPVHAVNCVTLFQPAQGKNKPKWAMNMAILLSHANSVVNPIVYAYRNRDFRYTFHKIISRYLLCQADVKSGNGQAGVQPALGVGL
The experiment in a line: Adenosine 2b receptor subtype competition radioligand binding, [3H]DPCPX, HEK293 membranes.

Amino acid sequences for entries named in this document (tags omitted). A change or cut given only in a name is not applied to a line headed by its entry.
UniProt P30542, whole entry: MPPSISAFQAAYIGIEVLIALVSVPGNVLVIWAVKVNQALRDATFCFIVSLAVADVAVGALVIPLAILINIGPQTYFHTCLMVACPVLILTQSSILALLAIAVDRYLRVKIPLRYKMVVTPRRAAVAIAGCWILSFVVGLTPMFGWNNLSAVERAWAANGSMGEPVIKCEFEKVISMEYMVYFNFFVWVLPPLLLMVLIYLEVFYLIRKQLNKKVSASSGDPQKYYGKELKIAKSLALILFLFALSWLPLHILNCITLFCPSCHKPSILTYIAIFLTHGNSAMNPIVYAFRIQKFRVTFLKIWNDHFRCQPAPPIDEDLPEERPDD

For assay [2], the target named is human A1 receptor subtype (Homo sapiens, UniProt P30542). The assay can be described thus: biochemical.
The next assay deals with T2, human adenosine A1 (A1R) (Homo sapiens, UniProt P30542).
T2 construct: yeast alpha-factor (MFalpha1) prepro leader (N, cleaved yes); expressed in transfected cells; host or cells: Saccharomyces cerevisiae (strain CY12660 and related strains carrying plasmid p5095)
The assay can be described thus: Yeast β-Galactosidase reporter gene assay, inhibition of NECA-induced activity, strain CY12660. It is filed as cell-based. The conditions noted are these: Table 12.

The record followed here is patent US6664252B2, “4-aminopyrrolo[2,3-d]pyrimidine compounds specific to adenosine A2a receptor and uses thereof” (OSI Pharmaceuticals, Inc., priority 1999, dated 2003).

Each structure is given as a SMILES string. pIC50, pKi: −log10 of the molar value. A value given as a limit tells only on which side of the number the result lay.

As to `CC(=O)NCCNc1nc(-c2ccccc2)nc2[nH]c(COc3ccc(Cl)cc3)cc12` [Compound 1402, 4-(2-acetylaminoethyl)amino-6-(4-chlorophenoxy)methyl-2-phenyl-7H-pyrrolo[2,3d]pyrimidine], the pKi in assay [1] is 7.66; in assay [2] it was 6.08.

With `Cc1[nH]c2nc(-c3ccccc3)nc(NCCC(=O)O)c2c1C` [Compound 1204], the pIC50 on human adenosine A1 (A1R) was below 5.00.

Broadly, the pKi is −log10 of the Ki, conventionally taken in molar units. Lower therefore signals a high Ki. In general, pIC50 refers to −log10 of the IC50, conventionally taken in molar units.
